Data from patent publication US20160297828A1, “SPIROCYCLIC COMPOUNDS CONTAINING SPIRO[INDOLYL-3,1'-PYRROLO[3,4-C]PYRROLE] CORE AND SULPHUR-CONTAINING AMINO ACID RESIDUES” (priority 2013, published 2016).

System: rats with intracerebral hemorrhage
Experiment: Lethality of rats with intracerebral hemorrhage of average severity
Type: in vivo
Method: Neuroprotective effect of 3,2′-spiro-pyrrolo-2-oxindole derivative (SI-86 compound) was studied on IUD model of moderate severity modeled under propofol anesthesia (60 mg/kg intraperitoneally (ip)) by autoblood administration into the brain internal capsule (stereotactic coordinates of the projection: H=7.0 mm, L=3.0 mm, A=1.5 mm from bregma) ([…]) (Method for reproduction of intracerebral hemorrhage in rats/O. K. Yarosh, S. V. Kyrychenko, S. P. Halimonchyk [et al.]//Circulation and hemostasis.-2005.-No. 1.-P. 77-81). The chosen model allows to reproduce clinical pattern of […] and is adequate for clinical study of potential neuroprotective agents.
As comparators the following drugs were used: mexydol (“Mexydol” UC Pharmasoft, Russia), 100 mg/kg; citicoline (“Somazina” Ferrer International, SA, Spain), 250 mg/kg; aktovegin (“Aktovegin”, Nycomed, Austria), 16 mg/kg pyracetam (“Pyracetam” Darnitsa, Ukraine), 400 mg/kg. According to the latest clinical guidelines regarding the treatment of patients with CVA approved by the Ministry of Health of Ukraine (Order No. 602 dated 3 Aug. 2012), all these drugs are allowed to be included into schemes for intensive patients therapy with CVA as neuroprotective agents. They were used at recommended doses for preclinical studies (McGrow C. P. Experimental Cerebral Infarction Effects of Pentobarbital in Mongolian Gerbils/C. P. McGrow//Arch. Neurol.-1977.-Vol. 34, No. 6.-P. 334-336). Experimental therapy of acute cerebral ischemia with SI-86 compound and comparator started 1 hour after IUD once a day for 21 days. The SI-86 derivative was investigated in conventionally effective dose of 10 mg/kg […] (iv)-dose that according to the results of our previous study provides maximum antihypoxic activity of SI-86 compound. Reference drugs were injected intraperitoneally (ip). Rats of control pathology group were injected by autoblood and as therapy 0.9% NaCI solution was administered calculated for 2 ml/kg […].
Pseudo-operated rats were exposed to all interventions (anesthesia, craniotomy) excluding autoblood administration that leveled traumatic impact of experimental conditions.
Evaluation of the ability of animals to learn and memorize of aversive stimulus was examined in the test of conditioned response of passive avoidance (CRPA). The technique is based on innate rat instinct to limited shadowy space. The study in rats was conducted in two-compartment unit consisted of two sections—light and dark. An animal was arranged into light compartment, fixing latency time for entering into the dark compartment, wherein rat received current irritation and ran in the light compartment. CRPA retention was tested every other day under latency time change of rat entering into the dark compartment. Also the number of animals was noted not fully entered the dark chamber. Cerebroprotective efficiency criteria of studied compounds were also animal death term (days) and their mortality rate (in %).
Quantitative data were processed using statistical StatPlus 2009 processing. The statistical significance of differences was assessed by Fisher's angular transformation (lethality outcome), also parametric t Student criterion were used in case of normal distribution of variation series, nonparametric W White criterion—in its absence.

[1] = 12 h, SI-86 10 mg/kg iv, mexydol 100, citocoline 250, actovegin 16, pyracetam 400 mg/kg

## C[N+](C)(C)CCOP(=O)(O)OP(=O)([O-])OC[C@H]1O[C@@H](n2ccc(N)nc2=O)[C@H](O)[C@@H]1O [citocoline]
[1]
  Lethality, %: 0/0%*^#
  Lethality, abs.: 0/0%*^#
24 h, same doses
  Lethality, %: 0/0%*^#
  Lethality, abs.: 0/0%*^#
24 h, same doses, listed as citicoline
  Lethality, %: 0%
24 h observation, SI-86 10, mexydol 100, citicoline 250 mg/kg
  cerebroprotective protection: 100%
48 h, same doses
  Lethality, %: 8.5%
  Lethality, abs.: 4
72 h, same doses
  Lethality, %: 12.8%
  Lethality, abs.: 6
96 h, same doses
  Lethality, %: 14.9%
  Lethality, abs.: 7
Within 4 days of therapy, same doses
  reduction of mortality in rats at the end of the observation period relative to control: 15.1%

Marks after values point to notes of the source that are not given here.
